Test results published in US20190252042A1, “INDENTIFICATION AND ANTIBIOTIC CHARACTERIZATION OF PATHOGENS IN METAGENOMIC SAMPLE” (BIOMÉRIEUX, priority 2016, published 2019).

Tested on: S aureus
Test: Antibiotic Susceptibility Testing (AST) profile by classical microbiology, BAL sample 2
Type: cell-based
Conditions: positive BAL metagenomic sample 2, pathogen S aureus

`CCC[C@@H]1C[C@@H](C(=O)N[C@@H]([C@H]2O[C@H](SC)[C@H](O)[C@@H](O)[C@H]2O)[C@H](C)Cl)N(C)C1` [clindamycine] was tested, and the AST profile was “resistance: peniciline, clindamycine”.
